Values quoted from earlier work as cited in publication PMC6824728 (International journal of pharmaceutics, 2019).

Conditions: 37°C; ref Kim and Hsieh, 2001; Wu and Hopkins, 1999; cited from earlier work

D-α-tocopherol polyethylene glycol 1000 succinate [TPGS]
Critical micelle concentration: 0.02 % (w/w)
